According to US9458176B2, “Tetrahydroimidazo(1,5-D)[1,4]oxazepine derivative” (Eisai R&D Management Co., Ltd., priority 2013, dated 2016):
Like-named read-outs stand apart in the source and are kept apart here.

Protein sequences, listed by entry. Tags and fused reporters are not part of them. Residues count along the entry.
UniProt Q14416, 19-872 limits assumed: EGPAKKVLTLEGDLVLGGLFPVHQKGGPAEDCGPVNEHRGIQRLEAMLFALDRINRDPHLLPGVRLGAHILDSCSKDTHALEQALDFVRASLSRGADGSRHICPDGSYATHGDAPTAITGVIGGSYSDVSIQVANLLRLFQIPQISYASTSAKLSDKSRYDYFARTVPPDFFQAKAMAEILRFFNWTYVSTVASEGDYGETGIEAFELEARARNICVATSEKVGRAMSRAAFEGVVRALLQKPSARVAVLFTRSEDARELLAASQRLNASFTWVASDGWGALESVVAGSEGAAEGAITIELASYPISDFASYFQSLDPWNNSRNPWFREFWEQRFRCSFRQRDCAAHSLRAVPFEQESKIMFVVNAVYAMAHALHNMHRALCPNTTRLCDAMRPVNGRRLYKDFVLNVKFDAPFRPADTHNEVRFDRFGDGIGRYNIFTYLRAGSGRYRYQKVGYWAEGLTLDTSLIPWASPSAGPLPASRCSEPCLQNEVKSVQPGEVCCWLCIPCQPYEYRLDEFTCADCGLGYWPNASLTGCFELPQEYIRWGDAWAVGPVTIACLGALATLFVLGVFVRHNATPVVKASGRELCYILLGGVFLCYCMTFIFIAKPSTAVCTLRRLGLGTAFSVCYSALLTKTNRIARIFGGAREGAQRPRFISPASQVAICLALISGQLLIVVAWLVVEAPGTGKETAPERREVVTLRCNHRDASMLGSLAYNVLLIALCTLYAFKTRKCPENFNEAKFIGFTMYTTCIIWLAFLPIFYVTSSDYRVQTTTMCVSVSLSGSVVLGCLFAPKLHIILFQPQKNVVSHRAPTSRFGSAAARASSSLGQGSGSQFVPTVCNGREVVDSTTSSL

Molecular target: human mGluR2 (Homo sapiens (Human), UniProt Q14416)
Test: [35S]GTPγS binding assay (Affinity to mGluR2)
Conditions: read-out: GTPγS binding assay IC50, cell membrane fraction of HEK293 cells stably expressing human mGluR2, glutamic acid 10 μM
Description: (Preparation of Cell Membrane Fraction of HEK293 Cells Stably Expressing Human Metabotropic Glutamate Receptor 2 (mGluR2))
HEK293 cells stably expressing human mGluR2 and human glutamate transporter SLC1A3 were cultured in a Dulbecco's modified Eagle's medium with 10% fetal bovine serum (50 units/mL of penicillin, 50 μg/mL of streptomycin, 60 μg/mL of geneticin, 400 μg/mL of hygromycin B and 2 mM of glutamine) at 37° C. under 5% CO2. Confluent cell cultures were washed twice with PBS(−), and then scraped off with a cell scraper, and subjected to centrifugal separation at 4° C. and 1500 rpm for 5 minutes for collecting cells. The centrifuged sediment (cell pellet) was homogenized in a 20 mM HEPES buffer containing 10 mM EDTA (pH 7.4) by using sonicator and centrifuged at 4° C. and 1500×g for 30 minutes. The supernatant (soluble fraction) was subjected to the centrifugal separation at 4° C. and 40,000×g for 30 minutes, and thus, insoluble fraction was obtained. After additional centrifugally washing the obtained fraction with 20 mM HEPES buffer containing 10 mM EDTA (pH 7.4), the pellet was centrifugally suspended with a 20 mM HEPES buffer containing 0.1 mM EDTA, and the cell membrane fraction was obtained by the centrifugal separation at 4° C. and 40,000×g for 30 minutes. The thus obtained cell membrane fraction was suspended in a 20 mM HEPES buffer containing 0.1 mM EDTA in a protein concentration of 3 mg/mL, which was stored at −80° C.
([^35S]GTPγS Binding Assay)
The frozen cell membrane fraction prepared as described above was thawed before use, and the resultant was diluted with a buffer for a binding assay (final concentrations: 20 mM HEPES, 100 mM NaCl, 1 mM MgCl2, 3 μM GDP, 300 μg/mL saponin, 0.1% BSA). […] After the incubation, the plate was subjected to the centrifugal separation at 2,500 rpm and room temperature, and then, membrane cell binding radioactivity was measured with a top count. […]

| SMILES | IC50 [µM] | IC50 (inhibition of specific [35S]GTPγS binding) [µM] |
| --- | --- | --- |
| COc1cc(-c2nc(-c3cc(C)nc(CF)c3)c3n2CCOCC3)ccc1Cl | 0.0253 |  |
| Cc1cc(-c2nc(-c3ccc(OC(F)(F)F)c(C)c3)n3c2CCOCC3)cc(C)n1 | 0.0194 |  |
| Cc1cc(-c2nc(-c3ccc(OC(F)(F)F)c(F)c3)n3c2CCO[C@H](C)C3)ccn1 |  | 0.0181 |
